Reference: US8883856B2, “Compositions and methods for the treatment of inflammatory diseases using topoisomerase inhibitors” (priority 2000, dated 2014)

Tested on: rat carotid artery
Assay type: in vivo
Details: applied to the perivascular side of the rat carotid artery
Text: In this model of restenosis, a balloon catheter is used to induce damage to the lumen of carotid arteries in rats. This damage causes extensive intimal hyperplasia and luminal narrowing, characteristic of restenosis. To determine the effect of drugs as antirestenosis agents, a polymeric dosage form of a drug is applied to the outside of the artery (perivascular application).
Wistar rats weighing 400 g to 500 g were anesthetized with halothane. A vertical incision was made over the trachea and the left carotid artery was exposed. Two ligatures were placed around the external carotid artery and an arteriotomy was made between them. A 2 French Fogarty balloon catheter was introduced into the external carotid artery and pushed into the left common carotid artery and the balloon was inflated with saline. The catheter was passed up and down the entire length of the carotid artery three times to stretch the vessel and denude the endothelium. The catheter was removed and the ligatures were tied off on the external carotid artery. […] The wound was then closed and the animals recovered. After 14 days, the rats were sacrificed and pressure perfused at 100 mmHg with 10% buffered formaldehyde. […] Sections were stained with hematoxylin-and-eosin and Movat's stains and digitized for computer assisted morphometric analysis to quantify luminal narrowing and intimal hyperplasia.

O=C1C=CC(=O)c2c(O)cccc21 [juglone]
necrosis or toxicity after perivascular application: excessive toxicities
